Measured values reported in patent US12171806B2, “Therapeutic regimens and methods for lowering blood glucose and/or body weight using GLP-1R and GCGR balanced agonists” (priority 2021, dated 2024).

Experiment: Phase 1 MAD study of ALT-801: adverse events (TEAEs), safety overview

## CC[C@H](C)[C@H](NC(=O)[C@H](Cc1ccccc1)NC(=O)[C@H](CCC(=O)O)NC(=O)[C@@H]1CCCCNC(=O)CC[C@H](NC(=O)[C@H](CC(=O)O)NC(=O)[C@H](CC(C)C)NC(=O)[C@H](Cc2ccc(O)cc2)NC(=O)[C@H](CCCCN)NC(=O)[C@H](CO)NC(=O)[C@H](Cc2ccc(O)cc2)NC(=O)[C@H](CC(=O)O)NC(=O)[C@H](CO)NC(=O)[C@@H](NC(=O)[C@H](Cc2ccccc2)NC(=O)[C@@H](NC(=O)CNC(=O)[C@H](CCC(N)=O)NC(=O)C(C)(C)NC(=O)[C@@H](N)Cc2c[nH]cn2)[C@@H](C)O)[C@@H](C)O)C(=O)N[C@@H](CCCCNC(=O)[C@H]2O[C@@H](OCCCCCCCCCCCCCCCCCC(=O)O)[C@H](O)[C@@H](O)[C@@H]2O)C(=O)N[C@@H](C)C(=O)N[C@@H](C)C(=O)N1)C(=O)N[C@@H](CCC(N)=O)C(=O)N[C@@H](Cc1c[nH]c2ccccc12)C(=O)N[C@@H](CC(C)C)C(=O)N[C@@H](CC(C)C)C(=O)N[C@@H](CCC(N)=O)C(=O)N[C@H](C(N)=O)[C@@H](C)O [ALT-801, pemvidutide]
M1 1.2 mg ALT-801 (N = 7)
  TEAE Vascular disorders, maximum severity Mild, subjects n: 0
  TEAE Vascular disorders, maximum severity Moderate, subjects %: (0.0%)
  TEAE Vascular disorders, maximum severity Moderate, subjects n: 0
  TEAE Vascular disorders, maximum severity PLT, subjects %: (0.0%)
  TEAE Vascular disorders, maximum severity PLT, subjects n: 0
  TEAE Vascular disorders, maximum severity Severe, subjects %: (0.0%)
  TEAE Vascular disorders, maximum severity Severe, subjects n: 0
M2 1.8 mg (N = 9)
  Any TEAE; Mild; %: (55.6%)
  Any TEAE; Mild; n: 5
  Any TEAE; Moderate; %: (44.4%)
  Any TEAE; Moderate; n: 4
  Any TEAE; PLT; %: (0.0%)
  Any TEAE; PLT; n: 0
  Any TEAE; Severe; %: (0.0%)
  Any TEAE; Severe; n: 0
  TEAE Abdominal discomfort; Mild; %: (11.1%)
  TEAE Abdominal discomfort; Mild; n: 1
  TEAE Abdominal discomfort; Moderate; %: (0.0%)
  TEAE Abdominal discomfort; Moderate; n: 0
  TEAE Abdominal discomfort; PLT; %: (0.0%)
  TEAE Abdominal discomfort; PLT; n: 0
  TEAE Abdominal discomfort; Severe; %: (0.0%)
  TEAE Abdominal discomfort; Severe; n: 0
  TEAE Abdominal distension; Mild; %: (0.0%)
  TEAE Abdominal distension; Mild; n: 0
  TEAE Abdominal distension; Moderate; %: (0.0%)
  TEAE Abdominal distension; Moderate; n: 0
  TEAE Abdominal distension; PLT; %: (0.0%)
  TEAE Abdominal distension; PLT; n: 0
  TEAE Abdominal distension; Severe; %: (0.0%)
  TEAE Abdominal distension; Severe; n: 0
  TEAE Abdominal pain; Mild; %: (11.1%)
  TEAE Abdominal pain; Mild; n: 1
  TEAE Abdominal pain; Moderate; %: (0.0%)
  TEAE Abdominal pain; Moderate; n: 0
  TEAE Abdominal pain; PLT; %: (0.0%)
  TEAE Abdominal pain; PLT; n: 0
  TEAE Abdominal pain; Severe; %: (0.0%)
  TEAE Abdominal pain; Severe; n: 0
  TEAE Anaemia; Mild; %: (11.1%)
  TEAE Anaemia; Mild; n: 1
  TEAE Anaemia; Moderate; %: (0.0%)
  TEAE Anaemia; Moderate; n: 0
  TEAE Anaemia; PLT; %: (0.0%)
  TEAE Anaemia; PLT; n: 0
  TEAE Anaemia; Severe; %: (0.0%)
  TEAE Anaemia; Severe; n: 0
  TEAE Application site bruise; Mild; %: (0.0%)
  TEAE Application site bruise; Mild; n: 0
  TEAE Application site bruise; Moderate; %: (0.0%)
  TEAE Application site bruise; Moderate; n: 0
  TEAE Application site bruise; PLT; %: (0.0%)
  TEAE Application site bruise; PLT; n: 0
  TEAE Application site bruise; Severe; %: (0.0%)
  TEAE Application site bruise; Severe; n: 0
  TEAE Application site erythema; Mild; %: (11.1%)
  TEAE Application site erythema; Mild; n: 1
  TEAE Application site erythema; Moderate; %: (0.0%)
  TEAE Application site erythema; Moderate; n: 0
  TEAE Application site erythema; PLT; %: (0.0%)
  TEAE Application site erythema; PLT; n: 0
  TEAE Application site erythema; Severe; %: (0.0%)
  TEAE Application site erythema; Severe; n: 0
  TEAE Blood and lymphatic system disorders; Mild; %: (11.1%)
  TEAE Blood and lymphatic system disorders; Mild; n: 1
  TEAE Blood and lymphatic system disorders; Moderate; %: (0.0%)
  TEAE Blood and lymphatic system disorders; Moderate; n: 0
  TEAE Blood and lymphatic system disorders; PLT; %: (0.0%)
  TEAE Blood and lymphatic system disorders; PLT; n: 0
  TEAE Blood and lymphatic system disorders; Severe; %: (0.0%)
  TEAE Blood and lymphatic system disorders; Severe; n: 0
  TEAE Cardiac disorders; Mild; %: (0.0%)
  TEAE Cardiac disorders; Mild; n: 0
  TEAE Cardiac disorders; Moderate; %: (0.0%)
  TEAE Cardiac disorders; Moderate; n: 0
  TEAE Cardiac disorders; PLT; %: (0.0%)
  TEAE Cardiac disorders; PLT; n: 0
  TEAE Cardiac disorders; Severe; %: (0.0%)
  TEAE Cardiac disorders; Severe; n: 0
  TEAE Constipation; Mild; %: (11.1%)
  TEAE Constipation; Mild; n: 1
  TEAE Constipation; Moderate; %: (11.1%)
  TEAE Constipation; Moderate; n: 1
  TEAE Constipation; Potentially PLT; %: (0.0%)
  TEAE Constipation; Potentially PLT; n: 0
  TEAE Constipation; Severe; %: (0.0%)
  TEAE Constipation; Severe; n: 0
  TEAE Diarrhoea; Mild; %: (0.0%)
  TEAE Diarrhoea; Mild; n: 0
  TEAE Diarrhoea; Moderate; %: (0.0%)
  TEAE Diarrhoea; Moderate; n: 0
  TEAE Diarrhoea; PLT; %: (0.0%)
  TEAE Diarrhoea; PLT; n: 0
  TEAE Diarrhoea; Severe; %: (0.0%)
  TEAE Diarrhoea; Severe; n: 0
  TEAE Dyspepsia; Mild; %: (0.0%)
  TEAE Dyspepsia; Mild; n: 0
  TEAE Dyspepsia; Moderate; %: (0.0%)
  TEAE Dyspepsia; Moderate; n: 0
  TEAE Dyspepsia; PLT; %: (0.0%)
  TEAE Dyspepsia; PLT; n: 0
  TEAE Dyspepsia; Severe; %: (0.0%)
  TEAE Dyspepsia; Severe; n: 0
  TEAE Early satiety; Mild; %: (0.0%)
  TEAE Early satiety; Mild; n: 0
  TEAE Early satiety; Moderate; %: (0.0%)
  TEAE Early satiety; Moderate; n: 0
  TEAE Early satiety; PLT; %: (0.0%)
  TEAE Early satiety; PLT; n: 0
  TEAE Early satiety; Severe; %: (0.0%)
  TEAE Early satiety; Severe; n: 0
  TEAE Eye disorders; Mild; %: (0.0%)
  TEAE Eye disorders; Mild; n: 0
  TEAE Eye disorders; Moderate; %: (0.0%)
  TEAE Eye disorders; Moderate; n: 0
  TEAE Eye disorders; PLT; %: (0.0%)
  TEAE Eye disorders; PLT; n: 0
  TEAE Eye disorders; Severe; %: (0.0%)
  TEAE Eye disorders; Severe; n: 0
  TEAE Eye pain; Mild; %: (0.0%)
  TEAE Eye pain; Mild; n: 0
  TEAE Eye pain; Moderate; %: (0.0%)
  TEAE Eye pain; Moderate; n: 0
  TEAE Eye pain; PLT; %: (0.0%)
  TEAE Eye pain; PLT; n: 0
  TEAE Eye pain; Severe; %: (0.0%)
  TEAE Eye pain; Severe; n: 0
  TEAE Fatigue; Mild; %: (11.1%)
  TEAE Fatigue; Mild; n: 1
  TEAE Fatigue; Moderate; %: (0.0%)
  TEAE Fatigue; Moderate; n: 0
  TEAE Fatigue; PLT; %: (0.0%)
  TEAE Fatigue; PLT; n: 0
  TEAE Fatigue; Severe; %: (0.0%)
  TEAE Fatigue; Severe; n: 0
  TEAE Food poisoning; Mild; %: (0.0%)
  TEAE Food poisoning; Mild; n: 0
  TEAE Food poisoning; Moderate; %: (11.1%)
  TEAE Food poisoning; Moderate; n: 1
  TEAE Food poisoning; PLT; %: (0.0%)
  TEAE Food poisoning; PLT; n: 0
  TEAE Food poisoning; Severe; %: (0.0%)
  TEAE Food poisoning; Severe; n: 0
  TEAE Fungal infection; Mild; %: (0.0%)
  TEAE Fungal infection; Mild; n: 0
  TEAE Fungal infection; Moderate; %: (0.0%)
  TEAE Fungal infection; Moderate; n: 0
  TEAE Fungal infection; PLT; %: (0.0%)
  TEAE Fungal infection; PLT; n: 0
  TEAE Fungal infection; Severe; %: (0.0%)
  TEAE Fungal infection; Severe; n: 0
  TEAE Fungal skin; Mild; %: (0.0%)
  TEAE Fungal skin; Mild; n: 0
  TEAE Gastrointestinal disorders; Mild; %: (55.6%)
  TEAE Gastrointestinal disorders; Mild; n: 5
  TEAE Gastrointestinal disorders; Moderate; %: (33.3%)
  TEAE Gastrointestinal disorders; Moderate; n: 3
  TEAE Gastrointestinal disorders; PLT; %: (0.0%)
  TEAE Gastrointestinal disorders; PLT; n: 0
  TEAE Gastrointestinal disorders; Severe; %: (0.0%)
  TEAE Gastrointestinal disorders; Severe; n: 0
  TEAE Haematemesis; Mild; %: (0.0%)
  TEAE Haematemesis; Mild; n: 0
  TEAE Haematemesis; Moderate; %: (0.0%)
  TEAE Haematemesis; Moderate; n: 0
  TEAE Haematemesis; PLT; %: (0.0%)
  TEAE Haematemesis; PLT; n: 0
  TEAE Haematemesis; Severe; %: (0.0%)
  TEAE Haematemesis; Severe; n: 0
  TEAE Infections and infestations; Mild; %: (33.3%)
  TEAE Infections and infestations; Mild; n: 3
  TEAE Infections and infestations; Moderate; %: (0.0%)
  TEAE Infections and infestations; Moderate; n: 0
  TEAE Infections and infestations; PLT; %: (0.0%)
  TEAE Infections and infestations; PLT; n: 0
  TEAE Infections and infestations; Severe; %: (0.0%)
  TEAE Infections and infestations; Severe; n: 0
  TEAE Injection site bruising; Mild; %: (0.0%)
  TEAE Injection site bruising; Mild; n: 0
